Bounds are passed on as bounds.

This experiment has as its target human nociceptin receptor (ORL-1) (Homo sapiens, UniProt P41146). The experiment in a line: nociceptin receptor binding assay (125I-Tyr14-nociceptin displacement, HEK293 cell membranes). The conditions noted are these: for IC50: 125I-Tyr14-nociceptin 0.5 nM, HEK293 cell membranes; for % Inh @ 10 μM: 10 μM test compound; for % Inh @ 10 μM / % Inh @ 100 μM: inhibition of 125I-Tyr14-nociceptin binding; for % Inh @ 100 μM: 100 μM test compound.

A word on the IC50: it is the concentration needed to halve the response being measured. A lower IC50 goes with greater potency in that assay. Consider `O=C1NCN(c2ccccc2)C12CCN(Cc1ccccc1-c1cccc(C(F)(F)F)c1)CC2`, for which the half-inhibitory concentration (IC50) was determined as 271 nM.

For the compound `COc1ccc(-c2ccc(CN3CCC4(CC3)C(=O)NCN4c3ccccc3)cc2)cc1`, the IC50 is 194 nM. The IC50 values of the last two compounds are within 1.5-fold of each other.

For `O=C1NCN(c2cccc(Cl)c2)C12CCN(Cc1ccccc1-c1ccco1)CC2`, the 50% inhibitory concentration (IC50) came out at 43 nM. This IC50 is about 4.5-fold lower than that of the compound before.

Turning to `O=C1NCN(c2ccccc2)C12CCN(Cc1ccccc1-c1ccc3ccccc3c1)CC2`, the “% Inh @ 10 μM” value was 28%, the “% Inh @ 100 μM” value came out at 31% and the 50% inhibitory concentration (IC50) was greater than 10000 nM.

In the case of `Cn1ncc(-c2cccs2)c1CN1CCC2(CC1)C(=O)NCN2c1ccccc1`, the half-maximal inhibitory concentration (IC50) stood at 300 nM. That is a sub-micromolar value.

`COC(=O)CN1CN(c2ccccc2)C2(CCN(CCc3ccccc3-c3cccs3)CC2)C1=O` had a half-maximal inhibitory concentration (IC50) of 12 nM.

With `O=C1NCN(c2ccccc2)C12CCN(Cc1ccc(-c3cc(Cl)cc(Cl)c3)cc1)CC2`, the half-inhibitory concentration (IC50) stood at 258 nM.

`O=C1NCN(c2ccccc2)C12CCN(CCc1ccccc1-c1ccsc1)CC2` returned a half-maximal inhibitory concentration (IC50) of 7.6 nM.

With `O=C1NCN(c2cccc(Br)c2)C12CCN(Cc1ccccc1-c1ccco1)CC2`, the half-inhibitory concentration (IC50) was 23 nM.

For `O=C1CCCCN1Cc1ccc(CN2CCC3(CC2)C(=O)NCN3c2ccccc2)cc1`, the “% Inh @ 10 μM” value was found to be 0% and the half-maximal inhibitory concentration (IC50) is greater than 10000 nM.

Turning to `O=C1NCN(c2ccccc2)C12CCN(Cc1cccc(OC3CCCc4ccccc43)c1)CC2` (stereo not shown), the 50% inhibitory concentration (IC50) turned out to be 632 nM.

As for `O=C1NCN(c2ccccc2)C12CCN(Cc1cccc(CN3CCCCC3)c1)CC2`, the “% Inh @ 10 μM” value is given as 52% and the IC50 was found to be 3490 nM.

`O=C1NCN(c2ccccc2)C12CCN(Cc1ccccc1-c1ccco1)CC2`: the half-maximal inhibitory concentration (IC50) is 5 nM.

Compound `CC(=O)c1ccc(-c2ccccc2CN2CCC3(CC2)C(=O)NCN3c2ccccc2)s1` gave an IC50 of 3200 nM.

For the compound `O=C1NCN(c2ccccc2)C12CCN(CCc1cccc(-c3cccs3)c1)CC2`, the concentration for half-maximal inhibition (IC50) worked out at 338 nM.

`O=C1NCN(c2ccccc2)C12CCN(Cc1ccccc1-c1cc3ccccc3o1)CC2`: the “% Inh @ 10 μM” value is listed as 43%, the “% Inh @ 100 μM” value was 47% and the concentration for half-maximal inhibition (IC50) is greater than 10000 nM.

On to `COc1ccc(-c2cccc(CN3CCC4(CC3)C(=O)NCN4c3ccccc3)c2)cc1`, for which the 50% inhibitory concentration (IC50) was determined as 346 nM. This lies in the sub-micromolar range.

For `O=C1NCN(c2ccccc2)C12CCN(Cc1cccc(COc3ccc([N+](=O)[O-])cc3)c1)CC2`, the 50% inhibitory concentration (IC50) is 340 nM.

Compound `O=C1NCN(c2ccccc2)C12CCN(Cc1ccc(-c3cccc4ccccc34)cc1)CC2` yielded an IC50 of 383 nM.

With `O=C1NCN(c2cccc(C(F)(F)F)c2)C12CCN(Cc1ccccc1-c1ccco1)CC2`, the IC50 is 20.1 nM.

`O=C1NCN(c2ccccc2)C12CCN(Cc1cccc(Cn3ccnc3)c1)CC2` displayed an IC50 of 1700 nM.

The compound `O=C1NCN(c2ccccc2)C12CCN(Cc1ccccc1OC1CCCc3ccccc31)CC2` (stereo not shown) had a concentration for half-maximal inhibition (IC50) of 866 nM.

`NC(=O)CN1CN(c2ccccc2)C2(CCN(Cc3ccccc3-c3cccs3)CC2)C1=O` showed an IC50 of 2.4 nM.

As for `O=C1NCN(c2ccccc2)C12CCN(CCOc1ccccc1-c1ccccc1)CC2`, the IC50 came to 940 nM.

Turning to `O=C1NCN(c2ccccc2)C12CCN(Cc1ccccc1-c1cccc3ccccc13)CC2`, the “% Inh @ 10 μM” value is “insoluble”, the “% Inh @ 100 μM” value is given as “insoluble” and the 50% inhibitory concentration (IC50) is greater than 10000 nM.

As to `O=C1c2ccccc2C(=O)N1Cc1ccc(CN2CCC3(CC2)C(=O)NCN3c2ccccc2)cc1`, the IC50 was 1900 nM.

`O=C1NCN(c2ccccc2)C12CCN(Cc1ccccc1-c1ccoc1)CC2`: the half-inhibitory concentration (IC50) amounted to 7 nM.

The compound `O=C1NCN(c2ccccc2)C12CCN(Cc1ccc(F)cc1-c1cccs1)CC2` returned an IC50 of 6 nM.

For the compound `CCN(CC)CCN1CN(c2ccccc2)C2(CCN(CCc3ccccc3-c3cccs3)CC2)C1=O`, the IC50 was 22 nM.

In the case of `O=C1NCN(c2ccccc2)C12CCN(Cc1ccccc1-c1cc3ccccc3s1)CC2`, the “% Inh @ 10 μM” value was determined as 15.5%, the “% Inh @ 100 μM” value is recorded as 25% and the concentration for half-maximal inhibition (IC50) was greater than 10000 nM.

Consider `O=C1NCN(c2ccccc2)C12CCN(Cc1ccc(-c3ccc(Cl)cc3)o1)CC2`, for which the half-inhibitory concentration (IC50) was found to be 133 nM.

Take `O=C1NCN(c2ccccc2)C12CCN(Cc1cc(C(F)(F)F)ccc1-c1cccs1)CC2`: the “% Inh @ 100 μM” value is on record as 64% and the concentration for half-maximal inhibition (IC50) came out at 1300 nM.

As to `O=C1NCN(c2ccccc2)C12CCN(Cc1sccc1-c1cccs1)CC2`, the IC50 was 11 nM.

Regarding `O=C1NCN(c2cccc(Cl)c2)C12CCN(Cc1ccccc1-c1cccs1)CC2`, the IC50 was determined as 16 nM.

`O=C1NCN(c2ccccc2)C12CCN(Cc1ccccc1-c1ccc3[nH]ccc3c1)CC2` gave a concentration for half-maximal inhibition (IC50) of 1100 nM. This IC50 is about 69-fold higher than that of the compound before.

The compound `Cc1csc(-c2ccccc2CN2CCC3(CC2)C(=O)NCN3c2ccccc2)c1` displayed an IC50 of 47 nM.

For `O=C1NCN(c2ccccc2)C12CCN(Cc1ccccc1-c1cccnc1)CC2`, the IC50 is 58 nM. The IC50 values of the last two compounds are within 1.5-fold of each other.

`O=C1NCN(c2ccccc2)C12CCN(Cc1ccccc1-c1ccsc1)CC2` had a 50% inhibitory concentration (IC50) of 12 nM.

On to `O=C1NCN(c2ccccc2)C12CCN(Cc1cccc(CN3CCc4ccccc4C3)c1)CC2`, for which the “% Inh @ 10 μM” value is reported as 33% and the IC50 was greater than 10000 nM.

`O=C1NCN(c2ccccc2)C12CCN(Cc1cccc(-c3cccc4ccccc34)c1)CC2` had a half-maximal inhibitory concentration (IC50) of 244 nM.

The compound `O=C1NCN(c2ccccc2)C12CCN(Cc1ccc(-c3cccnc3)cc1)CC2` displayed an IC50 of 1140 nM.

In turn, `O=C1NCN(c2ccccc2)C12CCN(Cc1cccc(-c3cccnc3)c1)CC2` gave a 50% inhibitory concentration (IC50) of 1110 nM. This IC50 and that of the compound before are within 1.5-fold of each other.

In turn, `O=C(Oc1ccc(OCc2cccc(CN3CCC4(CC3)C(=O)NCN4c3ccccc3)c2)cc1)c1ccccc1` gave an IC50 of 2700 nM.

As for `O=C1NCN(c2ccccc2)C12CCN(Cc1cccc(-c3ccccc3)c1)CC2`, the IC50 is 4100 nM.

In turn, `Cc1cc(N2CNC(=O)C23CCN(Cc2ccccc2-c2cccs2)CC3)cc(C)c1F` showed an IC50 of 109 nM.

With `CN(C)CCN1CN(c2ccccc2)C2(CCN(Cc3ccccc3-c3cccs3)CC2)C1=O`, the half-maximal inhibitory concentration (IC50) is 2.5 nM.

Regarding `O=C1NCN(c2ccccc2)C12CCN(Cc1ccccc1-c1nccs1)CC2`, the IC50 was 32 nM.

For `O=C1NCN(c2ccccc2)C12CCN(Cc1cc(F)ccc1-c1cccs1)CC2`, the IC50 is 21 nM.

Take `O=C1NCN(c2ccccc2)C12CCN(Cc1ccc(-c3ccccc3)cc1)CC2`: the IC50 was 484 nM.

As to `Cc1ccc(-c2ccccc2CN2CCC3(CC2)C(=O)NCN3c2ccccc2)s1`, the 50% inhibitory concentration (IC50) is 378 nM.

Regarding `CCN(CC)CCN1CN(c2ccccc2)C2(CCN(Cc3ccccc3-c3cccs3)CC2)C1=O`, the half-inhibitory concentration (IC50) is 8 nM. This IC50 lies about 47-fold lower than the previous one.

For the compound `CC(C)(C)OC(=O)n1cccc1-c1ccccc1CN1CCC2(CC1)C(=O)NCN2c1ccccc1`, the IC50 worked out at 759 nM.

The values are drawn from patent US7053101B2, “1,3,8-triazaspiro[4,5]decan-4-one derivatives useful for the treatment of ORL-1 receptor mediated disorders” (dated 2006).
